The text below walks through data of US9340577B2, “HLA binding motifs and peptides and their uses” (priority 1992, dated 2016).

Read-outs that look alike come from different tables or passages of the source.

Targets include DRB4*0101 (Homo sapiens, UniProt P01903+P13762, G164S); DRB5*0101 (Homo sapiens, UniProt P01903+Q30154); DRB1*1101 (Homo sapiens, UniProt P01903+P01911, A100R/A169T/A87E/I96F/K41T/L162R/M171V/P40S/Q125H/Q178H/Q39Y/Q99D/R42S/S66Y/T262R/V115G/W38E); DRB1*0901 (Homo sapiens, UniProt P01903+P01911, A100R/A103E/D57H/D86V/F55Y/F60I/F76Y/I96F/K127E/L162R/M171V/P40D/Q125H/Q99R/R33Q/R42F/S133A/S66N/T210M/V115G/W38K/Y107V/Y59G/Y89S); B*5401 (Homo sapiens, UniProt P01889, A329T/C349S/D138N/D201E/E176V/E187T/E204Q/E69G/I76V/K202T/L119W/R155S/R180L/S121T/S35A/S48A/V127L/V306I/V36M/Y140L).

Assay in all cases: biochemical
The target of the next experiment is A*3002 (Homo sapiens, UniProt P04439, D101N/D140H/D185E/E176R/F33S/G80R/H175R/K168Q/Q94H/R138E/R41S/V100E). It is filed as binding.

As usually defined, the IC50 is the concentration needed to halve the response being measured. For `CC[C@H](C)[C@H](NC(=O)CNC(=O)[C@H](C)NC(=O)[C@H](Cc1ccccc1)NC(=O)[C@H](CO)NC(=O)[C@@H](NC(=O)[C@H](CCC(=O)O)NC(=O)[C@H](CC(=O)O)NC(=O)[C@H](CO)NC(=O)[C@H](CO)NC(=O)[C@H](Cc1ccccc1)NC(=O)[C@@H](NC(=O)[C@H](CO)NC(=O)[C@@H](N)CCC(=O)O)C(C)C)[C@@H](C)CC)C(=O)N[C@H](C(=O)O)C(C)C` [Peptide 90.0195], 1320 nM corresponded to half-maximal inhibition on DRB4*0101 (IC50).

Regarding `CC[C@H](C)[C@H](NC(=O)[C@@H](NC(=O)[C@H](CCC(N)=O)NC(=O)[C@@H](N)Cc1ccccc1)C(C)C)C(=O)N[C@@H](CCC(=O)O)C(=O)N[C@@H](CC(C)C)C(=O)N[C@@H](CCC(N)=O)C(=O)N[C@@H](CCSC)C(=O)N[C@@H](C)C(=O)N[C@@H](CC(C)C)C(=O)N[C@@H](CCC(=O)O)C(=O)N[C@H](C(=O)N[C@@H](CC(C)C)C(=O)N[C@@H](CO)C(=O)N[C@@H](CCCCN)C(=O)O)[C@@H](C)O` [Peptide 89.0182], on DRB5*0101 ([…]), the IC50 amounted to 3510 nM.

In turn, `CC[C@H](C)[C@H](NC(=O)[C@H](Cc1ccc(O)cc1)NC(=O)[C@@H](NC(=O)[C@@H](NC(=O)[C@@H](NC(=O)[C@H](Cc1c[nH]c2ccccc12)NC(=O)[C@@H](N)C(C)C)[C@@H](C)O)[C@@H](C)CC)C(C)C)C(=O)N[C@@H](CCC(=O)O)C(=O)N[C@@H](Cc1ccc(O)cc1)C(=O)O` [Peptide 9015.0089] came in with an IC50 at A*3002 of 198 nM.

Consider `CC[C@H](C)[C@H](NC(=O)CNC(=O)[C@H](C)NC(=O)[C@H](Cc1ccccc1)NC(=O)[C@H](CO)NC(=O)[C@@H](NC(=O)[C@H](CCC(=O)O)NC(=O)[C@H](CC(=O)O)NC(=O)[C@@H](N)CO)[C@@H](C)CC)C(=O)N[C@H](C(=O)N[C@H](C(=O)N[C@@H](CCCCN)C(=O)N[C@@H](CC(C)C)C(=O)N1CCC[C@H]1C(=O)N[C@H](C(=O)O)[C@@H](C)O)[C@@H](C)O)C(C)C` [Peptide 1601.45], for which half-maximal inhibition at DRB4*0101 (IC50) was put at 14200 nM.

As to `CC[C@H](C)[C@H](N)C(=O)N[C@H](C(=O)N[C@@H](CCCCN)C(=O)N[C@H](C(=O)NCC(=O)N1CCC[C@H]1C(=O)N[C@@H](CCC(=O)O)C(=O)N[C@@H](CC(N)=O)C(=O)N1CCC[C@H]1C(=O)N[C@@H](Cc1ccc(O)cc1)C(=O)O)[C@@H](C)CC)[C@@H](C)O` [Peptide 9015.0162], the IC50 on A*3002 came to 382 nM.

`CC[C@H](C)[C@H](NC(=O)[C@H](CO)NC(=O)[C@H](CC(=O)O)NC(=O)[C@H](Cc1c[nH]c2ccccc12)NC(=O)[C@@H](NC(=O)[C@@H](NC(=O)[C@H](Cc1ccc(O)cc1)NC(=O)[C@H](CC(N)=O)NC(=O)[C@@H](N)CCSC)C(C)C)C(C)C)C(=O)N[C@@H](Cc1ccc(O)cc1)C(=O)N[C@@H](Cc1ccc(O)cc1)C(=O)N[C@H](C(=O)N[C@H](C(=O)N[C@@H](CCC(=O)O)C(=O)N[C@H](C(=O)O)[C@@H](C)O)[C@@H](C)O)[C@@H](C)CC` [Peptide 90.0214] yielded an IC50 against DRB4*0101 of 769 nM.

At DRB1*1101 (Binding affinity DRB1 *1101), `CC[C@H](C)[C@H](NC(=O)[C@H](C)NC(=O)[C@H](CC(N)=O)NC(=O)[C@H](CCC(=O)O)NC(=O)[C@H](CC(C)C)NC(=O)[C@H](CCCNC(=N)N)NC(=O)[C@@H](NC(=O)[C@H](CC(C)C)NC(=O)[C@H](CCC(N)=O)NC(=O)[C@@H](N)Cc1c[nH]c2ccccc12)[C@@H](C)CC)C(=O)N[C@@H](CC(C)C)C(=O)N[C@@H](Cc1ccccc1)C(=O)N[C@H](C(=O)N[C@@H](C)C(=O)N[C@@H](CCCNC(=N)N)C(=O)O)[C@@H](C)O` [Peptide 90.0211] displayed an IC50 of 269 nM.

Regarding `CC[C@H](C)[C@H](NC(=O)[C@H](CCCCN)NC(=O)[C@@H]1CCCN1C(=O)[C@@H]1CCCN1C(=O)[C@H](CCC(N)=O)NC(=O)[C@@H](NC(=O)[C@H](CC(C)C)NC(=O)[C@H](CCSC)NC(=O)[C@H](CCC(N)=O)NC(=O)[C@H](CCC(=O)O)NC(=O)[C@@H](N)CCC(N)=O)[C@@H](C)CC)C(=O)N[C@@H](CCCNC(=N)N)C(=O)N[C@@H](CO)C(=O)N1CCC[C@H]1C(=O)N[C@@H](C)C(=O)O` [Peptide 89.0124], the results for the half-inhibitory concentration (IC50) against DRB1*0901 and against DRB1*1101 were 1470 nM and 18400 nM, respectively.

As to `CSCC[C@H](NC(=O)CNC(=O)[C@@H]1CCCN1C(=O)[C@H](CCCCN)NC(=O)[C@H](CC(C)C)NC(=O)[C@H](CCCCN)NC(=O)[C@@H](NC(=O)[C@@H]1CCCN1C(=O)[C@@H](N)C(C)C)C(C)C)C(=O)O` [15.074], the IC50 against B*5401 amounted to 1660 nM.

The compound `CC[C@H](C)[C@H](NC(=O)[C@H](CC(C)C)NC(=O)[C@H](CCC(N)=O)NC(=O)[C@H](CC(=O)O)NC(=O)[C@H](C)NC(=O)[C@H](CC(C)C)NC(=O)[C@@H](N)CC(=O)O)C(=O)N[C@@H](Cc1c[nH]cn1)C(=O)N[C@@H](CC(C)C)C(=O)N[C@@H](Cc1ccc(O)cc1)C(=O)O` [Peptide 9015.0184] returned an IC50 against A*3002 of 285 nM.

On to `CC[C@H](C)[C@H](NC(=O)[C@H](CO)NC(=O)[C@H](Cc1ccccc1)NC(=O)[C@H](CCSC)NC(=O)[C@H](CS)NC(=O)CNC(=O)[C@@H]1CCCN1C(=O)[C@@H](N)CC(C)C)C(=O)N[C@@H](Cc1ccccc1)C(=O)O`, for which, at B*5401, it took 2780 nM to reach half-maximal inhibition (IC50).

The compound `CC[C@H](C)[C@H](NC(=O)[C@H](CC(N)=O)NC(=O)[C@@H](NC(=O)[C@@H](NC(=O)[C@@H](NC(=O)[C@H](CC(C)C)NC(=O)[C@H](CC(C)C)NC(=O)[C@@H]1CCCN1C(=O)[C@@H]1CCCN1)[C@@H](C)CC)[C@@H](C)O)[C@@H](C)O)C(=O)N[C@@H](CC(N)=O)C(=O)N1CCC[C@H]1C(=O)N[C@@H](CCSC)C(=O)N[C@@H](CC(C)C)C(=O)N[C@@H](CC(=O)O)C(=O)N[C@@H](C)C(=O)O` [Peptide 89.0139] registered an IC50 on DRB5*0101 of 5020 nM.

On B*5401, `CC(C)C[C@H](NC(=O)[C@@H]1CCCN1C(=O)[C@@H](NC(=O)[C@@H](NC(=O)[C@@H]1CCCN1C(=O)[C@@H](N)CC(=O)O)[C@@H](C)O)[C@@H](C)O)C(=O)N[C@@H](C)C(=O)N[C@@H](CCCNC(=N)N)C(=O)N[C@@H](C)C(=O)O` [16.011] registered an IC50 of 800 nM.

`CSCC[C@H](NC(=O)[C@H](CC(=O)O)NC(=O)[C@H](CO)NC(=O)[C@@H](N)CCC(=O)O)C(=O)N[C@@H](C)C(=O)N[C@@H](Cc1ccccc1)C(=O)N[C@@H](CCC(=O)O)C(=O)N[C@@H](Cc1ccc(O)cc1)C(=O)N[C@@H](C)C(=O)N[C@@H](CC(C)C)C(=O)N[C@@H](CC(C)C)C(=O)N[C@@H](C)C(=O)N[C@@H](CC(=O)O)C(=O)N[C@@H](CO)C(=O)N[C@@H](CC(N)=O)C(=O)O` [Peptide 90.0055] gave a 50% inhibitory concentration (IC50) on DRB5*0101 ([…]) of 13100 nM.

`CC(C)C[C@H](NC(=O)[C@H](CC(C)C)NC(=O)[C@H](CCC(N)=O)NC(=O)[C@@H](N)CCC(N)=O)C(=O)N[C@@H](CCC(N)=O)C(=O)N[C@H](C(=O)N[C@@H](CCC(N)=O)C(=O)N[C@H](C(=O)N[C@@H](C)C(=O)N[C@@H](Cc1c[nH]cn1)C(=O)N[C@@H](C)C(=O)N[C@@H](CC(=O)O)C(=O)N[C@@H](CCCCN)C(=O)N[C@@H](CCC(N)=O)C(=O)N[C@H](C(=O)O)[C@@H](C)O)[C@@H](C)O)C(C)C` [Peptide 89.0115] registered an IC50 on DRB1*1101 (Binding affinity DRB1 *1101) of 9680 nM.

Consider `CC[C@H](C)[C@H](NC(=O)[C@@H]1CCCN1C(=O)[C@@H](NC(=O)[C@@H]1CCCN1C(=O)[C@H](CC(=O)O)NC(=O)[C@H](Cc1ccccc1)NC(=O)[C@@H](N)CO)[C@@H](C)CC)C(=O)N[C@@H](Cc1c[nH]cn1)C(=O)N[C@@H](Cc1ccc(O)cc1)C(=O)O` [Peptide 9015.0002], for which the IC50 against A*3002 came out at 183 nM.

On DRB5*0101 ([…]), `CC[C@H](C)[C@H](NC(=O)[C@H](CC(C)C)NC(=O)[C@@H](NC(=O)CNC(=O)[C@H](Cc1c[nH]c2ccccc12)NC(=O)[C@@H](N)CCCCN)C(C)C)C(=O)N[C@@H](CC(C)C)C(=O)N[C@@H](C)C(=O)N[C@@H](CC(C)C)C(=O)N[C@@H](CC(C)C)C(=O)N[C@@H](CCCNC(=N)N)C(=O)N[C@@H](Cc1ccc(O)cc1)C(=O)N[C@@H](CCCCN)C(=O)N[C@@H](CS)C(=O)NCC(=O)O` [Peptide 89.0027] displayed an IC50 of 569 nM.

`CC[C@H](C)[C@H](NC(=O)[C@H](CCC(N)=O)NC(=O)[C@@H](NC(=O)[C@H](CO)NC(=O)[C@H](CC(N)=O)NC(=O)[C@@H]1CCCN1C(=O)[C@@H](NC(=O)[C@@H](NC(=O)[C@@H](NC(=O)[C@@H](N)C(C)C)C(C)C)[C@@H](C)O)[C@@H](C)CC)C(C)C)C(=O)N[C@@H](CO)C(=O)N[C@H](C(=O)NCC(=O)N[C@@H](Cc1ccc(O)cc1)C(=O)N[C@@H](CCSC)C(=O)O)C(C)C` [Peptide 1601.41]: the IC50 against DRB4*0101 was 294 nM.

In turn, `CC[C@H](C)[C@H](N)C(=O)N[C@H](C(=O)N[C@@H](Cc1c[nH]cn1)C(=O)N[C@@H](CC(C)C)C(=O)N[C@@H](CCCCN)C(=O)NCC(=O)N[C@@H](CC(=O)O)C(=O)N1CCC[C@H]1C(=O)N[C@@H](CC(N)=O)C(=O)N[C@@H](CO)C(=O)N[C@@H](CC(C)C)C(=O)N[C@@H](CCCCN)C(=O)N[C@@H](CS)C(=O)N[C@@H](CC(C)C)C(=O)N[C@@H](CCCNC(=N)N)C(=O)O)C(C)C` [Peptide 90.0255] yielded an IC50 on DRB1*1101 (Binding affinity DRB1 *1101) of 12100 nM.
